By UniProt entry, the sequences of proteins in these tests, tags left out. Where a name states a change or a piece, a line headed by the entry shows the natural chain unless it says otherwise.
UniProt P42338: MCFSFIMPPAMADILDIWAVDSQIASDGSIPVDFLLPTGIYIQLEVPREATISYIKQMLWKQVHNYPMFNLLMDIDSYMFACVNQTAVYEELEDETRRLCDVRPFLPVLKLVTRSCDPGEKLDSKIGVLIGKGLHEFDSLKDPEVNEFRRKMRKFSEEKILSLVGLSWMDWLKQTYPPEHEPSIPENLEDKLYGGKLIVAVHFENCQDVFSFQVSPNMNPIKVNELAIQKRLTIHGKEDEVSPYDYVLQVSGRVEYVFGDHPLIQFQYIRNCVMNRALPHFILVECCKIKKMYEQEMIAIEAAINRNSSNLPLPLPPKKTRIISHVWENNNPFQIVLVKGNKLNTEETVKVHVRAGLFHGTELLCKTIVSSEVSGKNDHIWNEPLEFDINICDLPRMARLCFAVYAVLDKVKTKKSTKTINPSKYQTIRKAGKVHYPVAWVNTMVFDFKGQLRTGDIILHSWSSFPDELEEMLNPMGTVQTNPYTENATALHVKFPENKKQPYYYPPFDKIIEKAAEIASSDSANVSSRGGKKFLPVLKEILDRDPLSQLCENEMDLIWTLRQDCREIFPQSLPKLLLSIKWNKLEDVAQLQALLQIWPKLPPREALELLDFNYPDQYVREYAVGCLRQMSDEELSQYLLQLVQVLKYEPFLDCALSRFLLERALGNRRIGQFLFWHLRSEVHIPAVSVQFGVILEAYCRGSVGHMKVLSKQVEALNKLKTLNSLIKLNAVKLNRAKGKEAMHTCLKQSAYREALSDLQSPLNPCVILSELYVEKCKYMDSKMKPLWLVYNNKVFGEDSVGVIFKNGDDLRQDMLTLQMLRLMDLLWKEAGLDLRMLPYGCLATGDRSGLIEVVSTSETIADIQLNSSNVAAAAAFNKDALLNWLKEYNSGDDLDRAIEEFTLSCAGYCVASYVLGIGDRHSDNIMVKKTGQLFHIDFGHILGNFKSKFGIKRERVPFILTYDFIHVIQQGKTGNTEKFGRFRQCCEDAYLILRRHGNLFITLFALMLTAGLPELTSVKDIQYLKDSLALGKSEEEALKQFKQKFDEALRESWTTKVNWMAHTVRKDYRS
UniProt Q8NEB9, whole entry: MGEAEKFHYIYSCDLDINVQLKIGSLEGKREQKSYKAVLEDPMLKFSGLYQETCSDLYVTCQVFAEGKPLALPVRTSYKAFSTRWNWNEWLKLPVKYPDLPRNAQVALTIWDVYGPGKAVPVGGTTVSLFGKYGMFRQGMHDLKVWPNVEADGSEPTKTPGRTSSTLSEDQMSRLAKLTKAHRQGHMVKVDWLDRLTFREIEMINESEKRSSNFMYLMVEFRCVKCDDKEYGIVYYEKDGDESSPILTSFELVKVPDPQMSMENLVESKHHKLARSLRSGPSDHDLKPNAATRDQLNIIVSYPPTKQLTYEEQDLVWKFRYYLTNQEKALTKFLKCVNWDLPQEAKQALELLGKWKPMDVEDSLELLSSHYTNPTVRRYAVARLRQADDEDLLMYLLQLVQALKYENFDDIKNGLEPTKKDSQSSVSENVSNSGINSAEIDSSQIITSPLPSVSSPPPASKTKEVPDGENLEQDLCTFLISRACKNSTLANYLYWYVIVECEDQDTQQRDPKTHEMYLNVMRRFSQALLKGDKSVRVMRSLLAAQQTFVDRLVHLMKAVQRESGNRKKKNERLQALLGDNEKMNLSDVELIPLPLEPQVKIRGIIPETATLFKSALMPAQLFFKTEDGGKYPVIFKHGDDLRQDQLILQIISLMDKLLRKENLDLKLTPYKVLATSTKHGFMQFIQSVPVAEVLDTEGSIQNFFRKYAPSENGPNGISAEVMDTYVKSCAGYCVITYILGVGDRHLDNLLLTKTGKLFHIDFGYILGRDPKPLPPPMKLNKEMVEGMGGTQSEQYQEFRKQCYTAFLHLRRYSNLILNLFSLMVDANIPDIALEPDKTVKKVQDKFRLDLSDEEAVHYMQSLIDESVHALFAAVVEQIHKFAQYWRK
UniProt P48736: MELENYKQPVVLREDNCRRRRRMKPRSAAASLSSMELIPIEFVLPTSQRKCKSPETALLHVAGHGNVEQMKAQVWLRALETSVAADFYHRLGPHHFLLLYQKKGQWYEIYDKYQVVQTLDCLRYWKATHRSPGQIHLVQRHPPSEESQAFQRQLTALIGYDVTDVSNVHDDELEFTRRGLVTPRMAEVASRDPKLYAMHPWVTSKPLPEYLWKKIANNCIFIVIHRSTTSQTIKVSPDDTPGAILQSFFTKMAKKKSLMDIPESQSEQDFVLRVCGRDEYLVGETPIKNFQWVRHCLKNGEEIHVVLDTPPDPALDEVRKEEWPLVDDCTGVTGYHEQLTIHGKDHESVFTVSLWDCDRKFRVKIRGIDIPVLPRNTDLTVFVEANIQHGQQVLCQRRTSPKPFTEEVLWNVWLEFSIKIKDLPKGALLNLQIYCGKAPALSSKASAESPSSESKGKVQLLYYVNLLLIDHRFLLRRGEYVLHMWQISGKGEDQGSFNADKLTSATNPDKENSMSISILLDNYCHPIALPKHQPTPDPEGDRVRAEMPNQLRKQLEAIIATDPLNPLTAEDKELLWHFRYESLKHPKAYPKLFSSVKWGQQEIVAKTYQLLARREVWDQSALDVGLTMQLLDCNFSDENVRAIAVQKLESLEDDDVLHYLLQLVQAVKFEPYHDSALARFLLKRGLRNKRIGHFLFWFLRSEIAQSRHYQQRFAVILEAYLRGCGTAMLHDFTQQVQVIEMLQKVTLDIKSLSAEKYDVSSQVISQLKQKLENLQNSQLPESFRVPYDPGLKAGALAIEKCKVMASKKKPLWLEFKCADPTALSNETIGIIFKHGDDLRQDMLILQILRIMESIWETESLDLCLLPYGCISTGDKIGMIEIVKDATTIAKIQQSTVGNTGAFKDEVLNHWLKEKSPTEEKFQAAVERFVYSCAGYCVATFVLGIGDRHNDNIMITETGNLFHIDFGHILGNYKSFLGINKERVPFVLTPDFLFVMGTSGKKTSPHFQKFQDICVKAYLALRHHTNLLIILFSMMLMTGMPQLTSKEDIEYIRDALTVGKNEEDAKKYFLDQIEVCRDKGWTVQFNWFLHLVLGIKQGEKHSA
UniProt Q9UBF8: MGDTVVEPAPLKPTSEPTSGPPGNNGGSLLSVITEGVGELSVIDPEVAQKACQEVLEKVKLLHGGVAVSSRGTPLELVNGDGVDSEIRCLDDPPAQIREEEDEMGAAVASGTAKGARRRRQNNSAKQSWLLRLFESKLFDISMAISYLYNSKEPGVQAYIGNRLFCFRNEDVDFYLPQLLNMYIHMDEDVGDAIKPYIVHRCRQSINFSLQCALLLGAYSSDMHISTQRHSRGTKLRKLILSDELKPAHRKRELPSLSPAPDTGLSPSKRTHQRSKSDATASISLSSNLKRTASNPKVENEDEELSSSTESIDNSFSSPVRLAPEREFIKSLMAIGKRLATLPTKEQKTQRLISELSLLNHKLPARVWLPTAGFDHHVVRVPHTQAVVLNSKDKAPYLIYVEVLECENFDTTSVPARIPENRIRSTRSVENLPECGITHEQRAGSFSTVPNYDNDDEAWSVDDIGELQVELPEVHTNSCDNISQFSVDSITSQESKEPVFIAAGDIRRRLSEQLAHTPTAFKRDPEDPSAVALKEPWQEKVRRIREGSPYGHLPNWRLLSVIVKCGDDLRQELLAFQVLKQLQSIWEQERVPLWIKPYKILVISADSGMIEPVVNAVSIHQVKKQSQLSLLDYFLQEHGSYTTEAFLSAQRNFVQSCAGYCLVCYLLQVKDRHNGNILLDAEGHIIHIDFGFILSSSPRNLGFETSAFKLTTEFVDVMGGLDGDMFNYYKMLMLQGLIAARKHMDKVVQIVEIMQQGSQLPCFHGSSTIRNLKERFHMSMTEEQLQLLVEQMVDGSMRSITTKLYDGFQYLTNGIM

According to paper PMC5078040, “Characterization of selective and potent PI3Kδ inhibitor (PI3KD-IN-015) for B-Cell malignances” (Oncotarget, 2016):

Tests used:
panel of 456 kinases = test: DiscoveRx KinomeScan kinome selectivity; assay type: binding; conditions: concentration of 1mM
PI3Kβ [1] = target: T1, PI3Kβ (Homo sapiens, UniProt P42338); conditions: relative to PI3Kδ IC50
Vps34 = target: T2, Vps34 (Homo sapiens, UniProt Q8NEB9); test: ADP-glo biochemical assay; conditions: relative to PI3Kδ IC50
T2 construct: purchased Invitrogen

PI3Kβ [2] = target: T1, PI3Kβ; test: biochemical
PI3Kγ = PI3Kγ (Homo sapiens, UniProt P48736); conditions: relative to PI3Kδ IC50
PI4KB = target: T3, PI4KB (Homo sapiens, UniProt Q9UBF8); test: ADP-glo biochemical assay; conditions: relative to PI3Kδ IC50
T3 construct: purchased Invitrogen

Cc1nc(NC(=O)[C@@H](N)C(C)C)sc1-c1cnc(Cl)c(NS(=O)(=O)c2ccccc2)c1 [PI3KD-IN-015]
kinome wide selectivity (panel of 456 kinases): did not target any other protein kinases except for a few lipid kinases
fold selectivity against PI3Kβ (PI3Kβ [1]): 20 fold
fold selectivity against Vps34 (Vps34): 56 fold
IC50 (PI3Kβ [2]): 100 nM
fold selectivity against PI3Kγ (PI3Kγ): 25 fold
fold selectivity against PI4KB (PI4KB): 34 fold
